An excerpt weighted towards active compounds, which were near 2.2% of everything screened.
Yeast UUG start: alters start codon recognition fidelity in yeast; S. cerevisiae UUG-firefly luciferase reporter, luminescence/redox ratio; activity score, % at 18.7 µM; actives 0.13% (n = 350,000);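 active means replicate mean at a twofold rise or more, about +100% in these data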;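 further: firefly luciferase made from a UUG start codon reports start codon fidelity; reporter light over untreated wells divided by growth signal over untreated wells; some hits fall short of that in this replicate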
SIRT5 block: blocks human SIRT5 desuccinylation of peptide; actives 1.1% (n = 330,000); AID 652115; inhibition, % at 15 µM; Purified SirT5, succinyl-peptide AMC, trypsin-coupled fluorescence; Q9NXA8; in the data active = inhibition above about 15%
S100A4 inh HTS: blocks human S100A4 binding to myosin IIA peptide; P26447; inhibition, % at 10.7 µM; S100A4/TAMRA-MyoIIA peptide fluorescence polarization; actives 0.14% (n = 360,000);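 active = mean inhibition of at least 70% across replicates, with every replicate also reaching that level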
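Material: S100A4 monomer (human). Medium: Calcium-containing HEPES buffer, pH 7.2. Probe or stimulus: labelled myosin peptide probe, 5 nM. Compound dosing: one concentration per compound. Timing: polarization read 5 min after assay mix addition, stable 5–60 min. Benchmarks: DMSO as neutral control, TFP as positive control.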
ERp5 inh: blocks human ERp5 reductase activity on insulin; Q15084; ERp5 insulin aggregation, absorbance 650 nm, 90 min; inhibition, % at 9.99 µM; actives 0.05% (n = 350,000); AID 651711;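 active = mean replicate inhibition above about 25%, with every replicate also reaching it, limit read from the data, passing the limit was not always enough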
FGF22 binding: shifts melting point of recombinant human FGF22; actives 1.5% (n = 340,000); AID 651658; activity (Tm shift, normalised), % at 9.99 µM; recombinant FGF22 thermal shift, SYPRO orange fluorescence; percent of sucrose octasulfate shift, DMSO zero;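 active = mean Tm shift, scaled 0 neutral to 100 positive control, at about 1.3% or above, every replicate too, limit read from the data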
PDI turbidity: inhibitors of human protein disulfide isomerase | PDI insulin aggregation turbidity, A650, 90 min | inhibition, % at 10 µM | actives 0.052% (n = 350,000);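 active = mean inhibition across replicates of 30% or more, whatever share of single replicates reach that level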
Numbers without * were called inactive; · = not tested or not shown; ! = not active in a repeat.

nr	Structure	SIRT5 block	Yeast UUG start	PDI turbidity
1	CCCC(=O)Nc1cc(C)c2c(=O)oc3ccccc3c2n1	2	2	5
2	CN1CCN(C(=S)NC(=O)/C=C/c2ccccc2Cl)CC1	3	·	0
3	CNC[C@H]1Oc2ncc(C#CC3CCCCC3)cc2C(=O)N([C@@H](C)CO)C[C@H]1C	12	10	·
4	CCc1ccc(S(=O)(=O)Nc2cccc(-c3ccc4nncn4n3)c2)s1	4	·	-15
5	COCC(=O)Nc1cccc(-c2ccc3nncn3n2)c1	-2	-24	3
6	O=C(Cc1ccc(F)cc1)Nc1cccc(-c2ccc3nncn3n2)c1	-2	·	-1
7	C[C@@H]1CCCCO[C@@H](CN(C)CC2CCCCC2)[C@@H](C)CN([C@@H](C)CO)C(=O)c2cc(NC(=O)NC3CCCCC3)ccc2O1	·	12	·
8	C[C@H](CO)N1C[C@H](C)[C@@H](CN(C)C(=O)CCC(F)(F)F)OCCCC[C@H](C)Oc2ccc(NS(=O)(=O)c3cn(C)cn3)cc2C1=O	0	-4	·
9	CN(C)C(=O)c1cccc(-c2ccccc2[C@H]2[C@H](C#N)N(C(=O)C3CCCC3)[C@H]2CO)c1	0	·	·
10	COc1ccc(CNc2ncnc3cc(Cl)ccc23)cc1OC	-4	·	-6
11	COc1ccccc1CNc1ncnc2cc(Cl)ccc12	-1	·	-4
12	CC(C)NC(=O)N1CC2(C1)[C@H](c1ccccc1)[C@@H](CO)N2CCC(F)(F)F	-5	·	·
13	COc1ccc(S(=O)(=O)N2CCOCC2)cc1NC(=O)CSc1n[nH]c(C(C)C)n1	20*	-15	-3
14	Cc1ccc(S(=O)(=O)N2CCOCC2)cc1NC(=O)COC(=O)c1n[nH]c(=O)c2ccccc12	16*	·	1
15	COc1ccc(S(=O)(=O)N2CCOCC2)cc1NC(=O)CSc1nc(C)c(C)c(C)n1	·	-3	-6

nr	ERp5 inh	S100A4 inh HTS	FGF22 binding
1	-4	-2	0
2	4	-2	43*
3	8	-34	0
4	-4	-3	43*
5	6	-4	0
6	-1	1	44*
7	·	·	0
8	-4	-14	0
9	1	-5	·
10	1	-5	43*
11	-2	-2	·
12	-1	23	0
13	4	-1	0
14	-2	3	0
15	0	-6	0

Among those listed so far, these contain an aryl thioether with sulfur outside any ring.
nr	Structure	SIRT5 block	Yeast UUG start	PDI turbidity
13	COc1ccc(S(=O)(=O)N2CCOCC2)cc1NC(=O)CSc1n[nH]c(C(C)C)n1	20*	-15	-3
15	COc1ccc(S(=O)(=O)N2CCOCC2)cc1NC(=O)CSc1nc(C)c(C)c(C)n1	·	-3	-6

nr	ERp5 inh	S100A4 inh HTS	FGF22 binding
13	4	-1	0
15	0	-6	0

Remaining list, next part:
nr	Structure	SIRT5 block	Yeast UUG start	PDI turbidity
16	COc1ccc(S(=O)(=O)N2CCOCC2)cc1NC(=O)C1CCCN1C(=O)c1cccs1 (stereo not drawn)	0	-14	-32
17	COc1ccc(S(=O)(=O)N2CCOCC2)cc1NC(=O)COC(=O)c1[nH]c(C)c(C(C)=O)c1C	17*	-19	-8
18	COc1ccc(S(=O)(=O)N2CCOCC2)cc1NC(=O)[C@@H]1CCCN1C(=O)c1cccs1	-3	·	-2
19	O=C(O)C[C@H]1CC[C@@H](NC(=O)Nc2ccccc2)[C@@H](CO)O1	4	-6	·
20	COc1ccc(NC(=O)N2CCC3(CC2)CN(CC2CC2)[C@H](CO)c2c3c3ccc(OC)cc3n2C)cc1	·	·	·
21	COc1ccc2cc(C#N)c(Nc3cccc(F)c3)nc2c1	-4	·	-5
22	COc1ccc(Nc2nc3cc(C)ccc3cc2C#N)cc1	-3	-22	0
23	CC1(C)CCC(C)(C)NC(=S)N1	-3	-10	1
24	CC1CC(C)(C)NC(=S)O1 (stereo not drawn)	-1	·	8
25	NS(=O)(=O)c1ccc(NC(=O)COC(=O)COc2ccccc2)cc1	-5	·	-6
26	CC(C)c1ccc(NC(=O)COC(=O)COc2ccccc2)cc1	0	·	-4
27	C[C@@H]1CCCCO[C@@H](CN(C)CC2CCCCC2)[C@H](C)CN([C@H](C)CO)C(=O)c2cc(NS(=O)(=O)c3ccccc3)ccc2O1	-3	33	·
28	Cc1ccc2cccc(Oc3ncnc4sc(C)c(C)c34)c2n1	3	·	9
29	Cc1ccc(-c2csc3ncnc(Oc4cccc5ccc(C)nc45)c23)cc1	1	·	9
30	Cc1ccc2cccc(Oc3cnccn3)c2n1	·	-24	-9

nr	ERp5 inh	S100A4 inh HTS	FGF22 binding
16	-20	2	0
17	1	1	0
18	5	1	43*
19	-2	-7	·
20	·	·	0
21	4	-3	44*
22	0	-5	0
23	2	0	0
24	3	-1	43*!
25	-1	5	0
26	-2	-7	43*
27	0	0	0
28	1	-2	43*
29	-1	-1	44*
30	·	·	·

Compound profiles (already shown). Screens in order: SIRT5 block	Yeast UUG start	PDI turbidity	ERp5 inh	S100A4 inh HTS	FGF22 binding
Results for NS(=O)(=O)c1ccc(NC(=O)COC(=O)COc2ccccc2)cc1 → -5	·	-6	-1	5	0
Results for C[C@@H]1CCCCO[C@@H](CN(C)CC2CCCCC2)[C@H](C)CN([C@H](C)CO)C(=O)c2cc(NS(=O)(=O)c3ccccc3)ccc2O1 → -3	33	·	0	0	0

Further results.
nr	Structure	SIRT5 block	Yeast UUG start	PDI turbidity
31	Cc1cccc(Cc2c(C)[nH]c(=O)c(C#N)c2C)c1	-2	·	-2
32	Cc1cccc(-c2ncc(CN3CCN(CC(C)C)C(CCO)C3)cn2)c1 (stereo not drawn)	0	1	-1
33	OCCC1CN(Cc2cccn2-c2cccnc2)CCN1Cc1ccc(F)cc1 (stereo not drawn)	1	-3	4
34	COc1ccc2[nH]c(CN3CCN(CC(C)C)C(CCO)C3)c(C)c2c1 (stereo not drawn)	2	1	4
35	COc1ccc2[nH]c(CN3CCN(C(C)C)C(CCO)C3)c(C)c2c1 (stereo not drawn)	-2	-3	-6
36	CC(C)CN1CCN(Cc2cccn2-c2cccnc2)CC1CCO (stereo not drawn)	1	·	-3
37	C[C@@H]1CCCCO[C@H](CN(C)Cc2ccc(C(F)(F)F)cc2)[C@@H](C)CN([C@@H](C)CO)C(=O)c2cc(NS(=O)(=O)c3ccc(Cl)cc3)ccc2O1	15	11	·
38	CCS(=O)(=O)N[C@H]1CC[C@@H](CC(=O)NCc2ccc(Cl)cc2)O[C@@H]1CO	4	4	·
39	CN(C)CC#Cc1ccc([C@@H]2[C@H](CO)N3C(=O)CN(C(=O)c4cccc(F)c4)C[C@@H]23)cc1	-12	·	·
40	Cc1ccc(S(=O)(=O)Nc2ccc3c(c2)C(=O)N([C@@H](C)CO)C[C@H](C)[C@@H](CN(C)C(=O)Nc2ccc(F)cc2)OCCCC[C@@H](C)O3)cc1	8	3	·
41	COC(=O)c1c(NC(=O)C2Cc3ccccc3C(=O)O2)sc2c1CCCC2 (stereo not drawn)	-2	·	-12
42	COC(=O)c1c(NC(=O)C2(C)Cc3ccccc3C(=O)O2)sc2c1CCCC2 (stereo not drawn)	19*	2	-4
43	CC(C)CC#Cc1cnc2c(c1)C(=O)N([C@@H](C)CO)C[C@@H](C)[C@@H](CN(C)Cc1ccc3c(c1)OCO3)O2	-2	-4	·
44	Cc1cccc(C)c1NC(=S)Nc1ccc(Cl)c(Cl)c1	0	-20	0
45	COc1ccc(NC(=S)Nc2cccc(Cl)c2)cc1OC	112*	-31	1

nr	ERp5 inh	S100A4 inh HTS	FGF22 binding
31	-2	-1	43*
32	1	4	43*
33	-3	0	0
34	-2	-11	43*
35	-3	1	0
36	0	7	43*
37	-2	8	0
38	5	-10	0
39	-3	16	·
40	-6	-4	0
41	7	-5	0
42	1	5	·
43	6	-30	0
44	-2	4	43*
45	-5	4	0
